Key:
Assay type in all cases: in vitro ADME
Stability in rat plasma = conditions: SD rat plasma, 37° C., 20 μM
Procedure: Example 6: Stability of Peptide Inhibitors in Rat Plasma
Peptides of interest (20 μM) were incubated with pre-warmed rat plasma (SD rat, mixed gender pooled, EDTA, filtered through 0.22 μm, BioreclamationIVT) at 37° C. Aliquots were taken at various time points up to 24 hours (e.g. 0, 0.25, 1, 3, 6 and 24 hr), and immediately quenched with 4 volumes of organic solvent (acetonitrile/methanol (1:1) and 0.1% formic acid, containing 1 μM internal standard). Quenched samples were stored at 4° C. until the end of the experiment and centrifuged at 4,000 rpm for 10 minutes. The supernatant were diluted 1:1 with deionized water and analyzed using LC-MS. Percentage remaining at each time point was calculated based on the peak area ratio (analyte over internal standard) relative to the initial level at time zero. Half-lives were calculated by fitting to a first-order exponential decay equation using GraphPad.

[1] = Stability in human fecal homogenate; conditions: 20% human fecal homogenate, 37° C., 20 μM
Procedure: (§1) Studies were carried out in human or cynomlogus monkey fecal homogenate to evaluate gastrointestinal stability of the peptide inhibitors of the present invention.
(§2) Fecal homogenate (20%) was prepared by adding 4 mL of growth medium (1 liter contains 2 g peptone water powder, 2 g yeast extract, 0.1 g NaCl, 0.04 g KH2PO4, 0.01 g CaCl2·6H2O, 0.01 g MgSO4.7H2O, 2 mL Tween 80, 0.5 g bile salts, 0.5 g L-cysteine HCl, 2 g NaHCO3, and 10 μL Vitamin K, pH adjusted to 6.8, and sterilized by filtration through a 0.22 μm filter) to every gram of feces (pooled freshly collected human or cynomolgus monkey feces). The suspension was vortexed to break up large clumps, and homogenized using a bead mill homogenizer. Centrifuged the homogenate at 2800×g for 15 min. The supernatant is taken out and used for incubations. DMSO stocks (10 mM) were first prepared for the test compounds. Incubations were performed in an anaerobic chamber conditioned at 37° C. Aliquots of the DMSO solutions were dosed into 1.0 mL aliquots of 20% fecal homogenate, which are pre-warmed to 37° C. The final test compound concentration was 20 μM. At each timepoint (0, 20 min, 1, 3, 6, or 24 hours), 100 μL aliquot of each incubation mixture is taken out and added to separate tubes containing 300 μL of 50% acetonitrile/50% methanol and an internal standard to terminate the reaction. Samples were taken out of the anaerobic chamber and stored at 4° C. until the end of the experiment. After the final timepoint is sampled, the tubes were mixed and then centrifuged at 3,000 rpm for 10 minutes. Aliquots of the supernatant were removed, diluted 1:1 into distilled water containing 0.1% formic acid, and analyzed by LC/MS/MS. Percent remaining at each timepoint was calculated based on the peak area response ratio of test to compound to internal standard. Time 0 was set to 100%, and all later timepoints were calculated relative to time 0. Half-lives were calculated by fitting to a first-order exponential decay equation using Graphpad or Excel.

[2] = Stability in cynomolgus monkey fecal homogenate; conditions: 20% cynomolgus monkey fecal homogenate, 37° C., 20 μM
Procedure: as §1, §2

[3] = Stability in simulated intestinal fluid (SIF); conditions: 100 fold dilution of standard SIF concentration, 37° C., 20 μM
Procedure: Studies were carried out in simulated intestinal fluid (SIF) and simulated gastric fluid (SGF) to evaluate gastric stability of the peptide inhibitors of the present invention. In addition, studies were carried out to assess redox stability of the peptide inhibitors of the present invention.
SIF was prepared by adding 6.8 g of monobasic potassium phosphate and 10.0 g of pancreatin to 1.0 L of water. After dissolution, the pH was adjusted to 6.8 using NaOH. DMSO stocks (2 mM) were first prepared for the test compounds. Aliquots of the DMSO solutions were dosed into 6 individual tubes, each containing 0.5 mL of SIF, which is pre-warmed to 37° C. The final test compound concentration was 20 μM. The vials were kept in a benchtop Thermomixer® for the duration of the experiment. At each timepoint (0, 5, 10, 20, 40, 60, or 360 minutes or 24 hours), 1.0 mL of acetonitrile containing 1% formic acid was added to one vial to terminate the reaction. Samples were stored at 4° C. until the end of the experiment. After the final timepoint is sampled, the tubes were mixed and then centrifuged at 3,000 rpm for 10 minutes. Aliquots of the supernatant were removed, diluted 1:1 into distilled water containing internal standard, and analyzed by LCMS/MS. Percent remaining at each timepoint was calculated based on the peak area response ratio of test to compound to internal standard. Time 0 was set to 100%, and all later timepoints were calculated relative to time 0. Half-lives were calculated by fitting to a first-order exponential decay equation using Graphpad.

Substance: Ac-[Pen]-N-T-[W(7-Me)]-[Lys(Ac)]-[Pen]-Phe[4-(2-aminoethoxy)]-[W(3-MePh)]-[a-MeLys]-[Lys(Ac)]-N-H-[Sarc]-NH2 [Peptide 43]
- t½: Rat Plasma EDTA (Stability in rat plasma): >24.0 h
- t½: Human Feces anaerobic [1]: 23.9 h
- t½: Monkey Feces anaerobic [2]: 24 h
- SIF t½ [3]: >24.0 h

Substance: Ac-[Pen]-N-T-[W(7-Me)]-[Lys(Ac)]-[Pen]-Phe[4-(2-aminoethoxy)]-[W(4-Me)]-[a-MeLys]-[Lys(Ac)]-N-H-[Sarc]-NH2 [Peptide 35]
- t½: Rat Plasma EDTA (Stability in rat plasma): >24.0 h
- t½: Human Feces anaerobic [1]: >24.0 h
- t½: Monkey Feces anaerobic [2]: >24.0 h
- SIF t½ [3]: >24.0 h

Substance: Ac-[Pen]-N-T-[W(7-Me)]-[Lys(Ac)]-[Pen]-Phe[4-(2-aminoethoxy)]-[W(4-OMe)]-[a-MeLys]-[Lys(Ac)]-N-H-[Sarc]-NH2 [Peptide 37]
- t½: Rat Plasma EDTA (Stability in rat plasma): >24.0 h
- t½: Human Feces anaerobic [1]: >24.0 h
- t½: Monkey Feces anaerobic [2]: 23.5 h
- SIF t½ [3]: >24.0 h

Substance: Ac-[Pen]-N-T-[W(7-Me)]-[Lys(Ac)]-[Pen]-Phe[4-(2-aminoethoxy)]-[W(5-OMe)]-[a-MeLys]-[Lys(Ac)]-N-H-[Sarc]-NH2 [Peptide 42]
- t½: Rat Plasma EDTA (Stability in rat plasma): >24.0 h
- t½: Human Feces anaerobic [1]: >24.0 h
- t½: Monkey Feces anaerobic [2]: 15.7 h
- SIF t½ [3]: >24.0 h

Substance: Ac-[Pen]-N-T-[W(7-Me)]-[Lys(Ac)]-[Pen]-Phe[4-(2-aminoethoxy)]-[W(6-Et)]-[a-MeLys]-[Lys(Ac)]-N-H-[Sarc]-NH2 [Peptide 45]
- t½: Rat Plasma EDTA (Stability in rat plasma): >24.0 h
- t½: Human Feces anaerobic [1]: >24.0 h
- t½: Monkey Feces anaerobic [2]: 18.4 h
- SIF t½ [3]: >24.0 h

Substance: Ac-[Pen]-N-T-[W(7-Me)]-[Lys(Ac)]-[Pen]-Phe[4-(2-aminoethoxy)]-[W(6-Ph)]-[a-MeLys]-[Lys(Ac)]-N-H-[Sarc]-NH2 [Peptide 44]
- t½: Rat Plasma EDTA (Stability in rat plasma): >24.0 h
- t½: Human Feces anaerobic [1]: 22.7 h
- t½: Monkey Feces anaerobic [2]: 23.2 h
- SIF t½ [3]: >24.0 h

Substance: Ac-[Pen]-N-T-[W(7-Me)]-[Lys(Ac)]-[Pen]-Phe[4-(2-aminoethoxy)]-[W(7-Et)]-[a-MeLys]-[Lys(Ac)]-N-H-[Sarc]-NH2 [Peptide 34]
- t½: Rat Plasma EDTA (Stability in rat plasma): >24.0 h
- t½: Human Feces anaerobic [1]: >24.0 h
- t½: Monkey Feces anaerobic [2]: >24.0 h
- SIF t½ [3]: >24.0 h

Substance: Ac-[Pen]-N-T-[W(7-Me)]-[Lys(Ac)]-[Pen]-Phe[4-(2-aminoethoxy)]-[W(7-OMe)]-[a-MeLys]-[Lys(Ac)]-N-H-[Sarc]-NH2 [Peptide 40]
- t½: Rat Plasma EDTA (Stability in rat plasma): >24.0 h
- t½: Human Feces anaerobic [1]: >24.0 h
- t½: Monkey Feces anaerobic [2]: 19.9 h
- SIF t½ [3]: >24.0 h

Substance: Ac-[Pen]-N-T-[W(7-Me)]-[Lys(Ac)]-[Pen]-Phe[4-(2-aminoethoxy)]-[W(7-Ph)]-[a-MeLys]-[Lys(Ac)]-N-H-[Sarc]-NH2 [Peptide 50]
- t½: Rat Plasma EDTA (Stability in rat plasma): >24.0 h
- t½: Human Feces anaerobic [1]: >24.0 h
- t½: Monkey Feces anaerobic [2]: 24.1 h
- SIF t½ [3]: >24.0 h

Substance: Ac-[Pen]-N-T-[W(7-Me)]-[Lys(Ac)]-[Pen]-Phe[4-(2-aminoethoxy)]-[W(7-i-Pr)]-[a-MeLys]-[Lys(Ac)]-N-H-[Sarc]-NH2 [Peptide 38]
- t½: Rat Plasma EDTA (Stability in rat plasma): >24.0 h
- t½: Human Feces anaerobic [1]: >24.0 h
- t½: Monkey Feces anaerobic [2]: >24.0 h
- SIF t½ [3]: >24.0 h

Substance: Ac-[Pen]-N-T-[W(7-Me)]-[Lys(Gly)]-[Pen]-Phe[4-(2-aminoethoxy)]-[2-Nal]-[THP]-E-N-[(D)Leu]-[Sarc]-NH2 [Peptide 28]
- t½: Rat Plasma EDTA (Stability in rat plasma): 1 h
- t½: Human Feces anaerobic [1]: 5.6 h
- t½: Monkey Feces anaerobic [2]: 19.2 h
- SIF t½ [3]: >24.0 h

Substance: Ac-[Pen]-N-T-[W(7-Me)]-[Lys(Gly)]-[Pen]-Phe[4-(2-aminoethoxy)]-[2-Nal]-[a-MeLys]-[Lys(Ac)]-N-H-[Sarc]-NH2 [Peptide 27]
- t½: Rat Plasma EDTA (Stability in rat plasma): >24.0 h
- t½: Human Feces anaerobic [1]: 4.4 h
- t½: Monkey Feces anaerobic [2]: 11.6 h
- SIF t½ [3]: >24.0 h

From patent publication US11845808B2, “Peptide inhibitors of interleukin-23 receptor and their use to treat inflammatory diseases” (Janssen Biotech, Inc., priority 2020, dated 2023)
